Antibody variant affinities, Ab-14 light chain, assay 1

Antigen: PDVDLGDISGINAS, a 14-residue peptide of the SARS-CoV-2 spike HR2 region.

Parent: Ab-14, a human scFv built as VH, a 15-residue (Gly4Ser)3 linker, VL. Only the CDRs of the light chain vary.
VH: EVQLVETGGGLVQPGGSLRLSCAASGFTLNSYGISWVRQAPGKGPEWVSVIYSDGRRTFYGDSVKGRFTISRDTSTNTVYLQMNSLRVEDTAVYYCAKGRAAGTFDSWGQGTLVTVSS
VL: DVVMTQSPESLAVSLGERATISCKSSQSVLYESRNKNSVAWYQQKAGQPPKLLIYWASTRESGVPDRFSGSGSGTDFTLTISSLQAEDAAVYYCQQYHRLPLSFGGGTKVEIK

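Phage display of a naive human antibody library on the peptide gave the parent. AAYL50 was designed without a model: most single CDR substitutions and a random sample of double and triple ones. In AlphaSeq, yeast of one mating type display the scFv and yeast of the other type display the target. After mating in shaken culture at 30 °C for 16 h, diploids were selected and their barcode pairs sequenced. Read counts were normalised to the haploid input and turned into Kd by a linear fit to BCL2-family pairs of known affinity, for each replicate. Mating was done three times.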

Changes read parent residue, position, new residue, counted from the first residue of the VL shown.
Numbers give log10(Kd / nM), so 0 is 1 nM and 3 is 1 µM. Smaller is tighter.
Where no diploid with the target was found in that replicate, the entry reads "ND": below detection, most likely a poor binder, though not proof of it.
Nonspecific signal, from three strains lacking the peptide, appeared in 18% of pairings of library AAYL50, centred on 4.19 (5% of these signals below 2.99); values are not corrected for it. Also given: how often the same scFv was detected with the empty control strains, with their mean in brackets.
Parent in this assay: reference entry 0.65, copy in this library 1.68.

| log10 Kd, replicates | control signals | changes |
|---|---|---|
| ND ND ND | 1/9 (3.19) | S38I+L102E+S103A |
| ND 4.60 ND | 1/9 (2.39) | A40P+H98C+S103P |
| 3.10 ND ND | 2/9 (4.49) | S28V+S33N+V39H |
| 2.49 3.43 3.40 | 5/9 (3.57) | N37T+S58G+T59Q |
| ND ND ND | 0/9 | V29M+W56M+L102T |
| ND 2.71 3.24 | 0/9 | S26G+T59Q+Q96I |
| ND ND ND | 3/9 (2.98) | S28N+Q95K+S103L |
| 4.20 3.64 3.75 | 3/9 (4.53) | W56C+T59G+L100A |
| 1.91 1.74 1.72 | 1/9 (4.47) | E32G+T59N+Y97I |
| 1.47 1.53 1.79 | 0/9 | S38P+S62K+L100Y |
| ND ND ND | 1/9 (4.24) | S25W+V39H+Q95W |
| ND 4.53 ND | 2/9 (4.44) | V29C+A40D+S103R |
| ND ND ND | 0/9 | R60N+E61V+Q96H |
| 4.08 3.30 4.42 | 2/9 (3.37) | N35M+N37D+S103C |
| ND ND ND | 1/9 (3.60) | Q27C+V39E+Y97C |
| 2.03 ND 2.56 | 0/9 | S38C+R99W+S103W |
| ND ND ND | 0/9 | S25Y+V39K+L100Q |
| ND ND ND | 0/9 | N37D+A57F+T59H |
| 1.78 1.83 1.81 | 1/9 (3.55) | S25F+S28E+V39A |
| 1.60 2.09 1.50 | 0/9 | L30P+S38D+R99K |
| 4.09 3.99 ND | 3/9 (4.05) | R34M+K36V+A40L |
| 4.25 5.25 4.78 | 5/9 (4.33) | L30C+A40K+W56G |
| 1.74 1.89 1.73 | 1/9 (4.99) | S28A+L30H+R99P |
| ND 3.36 ND | 1/9 (4.53) | S33V+T59Y+Q95G |
| 1.12 1.26 1.43 | 2/9 (4.04) | S33E+N35Q+Y97L |
| ND ND ND | 2/9 (3.56) | A40I+H98K+R99L |
| ND ND 3.65 | 8/9 (4.55) | E32C+S33F |
| ND ND ND | 0/9 | S26G+Y31T+K36I |
| ND ND ND | 0/9 | R34E+A40M+A57R |
| ND ND 3.60 | 1/9 (3.90) | S26K+R34T+L102S |
| ND ND ND | 0/9 | V39Y+Q96S |
| 2.20 2.79 2.60 | 5/9 (3.70) | S25V+N35L+V39F |
| 1.82 2.02 1.83 | 1/9 (2.71) | S33T+L102I |
| ND ND ND | 1/9 (4.13) | K36P+A40P+Q95R |
| ND ND ND | 1/9 (4.46) | S26G+S58L+Q96S |
| 3.30 2.51 2.77 | 2/9 (3.01) | R34K+Q95E+Q96T |
| ND ND 3.36 | 1/9 (4.66) | S28Y+R34W+N37L |
| 4.99 ND 4.21 | 0/9 | K36M+A57I+R60Y |
| ND ND ND | 2/9 (4.19) | R34M+S58K+R60L |
| ND 4.24 ND | 2/9 (3.72) | L30D+R99C+L100E |

Repeated from above, the 4 best binders with a signal in all replicates:

| changes | log10 Kd, replicates | control signals |
|---|---|---|
| S33E+N35Q+Y97L | 1.12 1.26 1.43 | 2/9 (4.04) |
| S38P+S62K+L100Y | 1.47 1.53 1.79 | 0/9 |
| L30P+S38D+R99K | 1.60 2.09 1.50 | 0/9 |
| S28A+L30H+R99P | 1.74 1.89 1.73 | 1/9 (4.99) |

Data: MIT Lincoln Laboratory AlphaSeq set, Engelhart et al. 2022, doi:10.1038/s41597-022-01779-4, as distributed in FLAb.